Data reported in patent publication US4329353A (priority 1981, dated 1982).

Key:
[1] = system: tryptamine-induced bilateral tonic seizures; experiment: tryptamine (TRY) test in rats (combined APO-TRY-NOR test); settings: rat, s.c., tryptamine 40 mg/kg i.v. 90 min after compound; for ED50 (TRY): Table 1
[2] = system: apomorphine-induced agitation and stereotypic chewing; experiment: apomorphine (APO) test in rats (combined APO-TRY-NOR test); settings: s.c., apomorphine hydrochloride 1.25 mg/kg i.v. 30 min after compound
[3] = system: apomorphine-induced emesis; experiment: apomorphine test in dogs (APO-dog); type: in vivo, beagle dogs; settings: apomorphine 0.31 mg/kg s.c. 1 hour after compound; for ED50 (APO)dog: Table 1; for ED50 (APO)-dog: Table 2, s.c. per method
[4] = Table 1, dose protecting 50% of animals

SMILES | ED50 (APO)-rat [2, 4] | ED50 (APO)dog ([3]; s.c.) | ED50 -(TRY) ([1]; Table 2) | ED50 (APO)-dog [3] | other results
N#CC1(c2ccccc2)CCC(N2CCC3(CC2)C(=O)NCN3c2ccccc2)CC1 (single isomer, unassigned) | 0.08 mg/kg | 0.00063 mg/kg |  |  | ED50 (TRY) [1]: 2.0 mg/kg
CCCOC(=O)C1(c2ccc(F)cc2)CCC(N2CCC3(CC2)C(=O)NCN3c2ccc(F)cc2)CC1 (centres unmarked) | 5 mg/kg | 0.008 mg/kg |  |  | ED50 (TRY) [1]: 10 mg/kg
CCCCOC(=O)C1(c2ccc(F)cc2)CCC(N2CCC3(CC2)C(=O)NCN3c2ccc(F)cc2)CC1 (centres unmarked) | 10 mg/kg | 0.008 mg/kg |  |  | 
CNC(=O)CN1CN(c2ccc(F)cc2)C2(CCN(C3CCC(C#N)(c4ccc(F)cc4)CC3)CC2)C1=O (single isomer, unassigned) |  |  | 5 mg/kg | 0.0016 mg/kg | 
N#CC1(c2ccc(Cl)cc2)CCC(N2CCC3(CC2)C(=O)NCN3c2ccccc2)CC1 (centres unmarked) | 5.0 mg/kg | 0.007 mg/kg |  |  | 
CCOC(=O)C1(c2ccc(F)cc2)CCC(N2CCC3(CC2)C(=O)NCN3c2ccc(F)cc2)CC1 (centres unmarked) | 2.5 mg/kg | 0.003 mg/kg |  |  | ED50 (TRY) [1]: 5 mg/kg
N#CC1(c2ccc(F)cc2)CCC(N2CCC3(CC2)C(=O)NCN3c2ccccc2)CC1 (centres unmarked) | 0.16 mg/kg | 0.0005 mg/kg |  |  | 
CCOC(=O)C1(c2ccc(F)cc2)CCC(N2CCC(n3c(=O)[nH]c4ccccc43)CC2)CC1 (centres unmarked) |  |  |  |  | ED50 -(TRY) ([1]; Table 3): 5 mg/kg; ED50 -(APO)-dog ([3]; Table 3, s.c.): 0.04 mg/kg
N#CC1(c2ccc(F)cc2)CCC(N2CCC3(CC2)C(=O)N(Cc2ccccc2)CN3c2ccc(F)cc2)CC1 (centres unmarked) |  |  |  | 0.008 mg/kg | 
CN(C)C(=O)CN1CN(c2ccc(F)cc2)C2(CCN(C3CCC(C#N)(c4ccc(F)cc4)CC3)CC2)C1=O (single isomer, unassigned) |  |  | < 2.5 mg/kg | 0.001 mg/kg | ED50 (APO)-rat ([2]; Table 2): < 2.5 mg/kg
CC(C)N1CN(c2ccc(F)cc2)C2(CCN(C3CCC(C#N)(c4ccc(F)cc4)CC3)CC2)C1=O (centres unmarked) |  |  | < 10 mg/kg | 0.001 mg/kg | ED50 (APO)-rat ([2]; Table 2): < 10 mg/kg
COC(=O)CC(C)N1CN(c2ccc(F)cc2)C2(CCN(C3CCC(C#N)(c4ccc(F)cc4)CC3)CC2)C1=O (single isomer, unassigned) |  |  | 10 mg/kg | 0.002 mg/kg | ED50 (APO)-rat ([2]; Table 2): 5 mg/kg
N#CC1(c2ccccc2)CCC(N2CCC3(CC2)C(=O)NCN3c2ccccc2)CC1 (centres unmarked) | < 10 mg/kg | 0.001 mg/kg |  |  | 
COC(=O)CCN1CN(c2ccc(F)cc2)C2(CCN(C3CCC(C#N)(c4ccc(F)cc4)CC3)CC2)C1=O (single isomer, unassigned) |  |  | 10 mg/kg | 0.002 mg/kg | 
COC1(c2ccc(F)cc2)CCC(N2CCC3(CC2)C(=O)NCN3c2ccc(F)cc2)CC1 (centres unmarked) |  |  |  |  | ED50 (TRY) [1]: 5 mg/kg
CC(C#N)CN1CN(c2ccc(F)cc2)C2(CCN(C3CCC(C#N)(c4ccc(F)cc4)CC3)CC2)C1=O (single isomer, unassigned) |  |  | 0.31 mg/kg | 0.0005 mg/kg | ED50 (APO)-rat ([2]; Table 2): 0.16 mg/kg
CCOC(=O)C1(c2ccccc2)CCC(N2CCC(n3c(=O)[nH]c4ccccc43)CC2)CC1 (centres unmarked) |  |  |  |  | ED50 -(TRY) ([1]; Table 3): 5 mg/kg; ED50 (APO)-rat ([2]; Table 3): 1.25 mg/kg
N#CC1(c2ccc(F)cc2)CCC(N2CCC3(CC2)C(=O)N(CC(N)=O)CN3c2ccc(F)cc2)CC1 (single isomer, unassigned) |  |  |  | 0.0009 mg/kg | 
CCOC(=O)C1(c2ccc(F)cc2)CCC(N2CCC3(CC2)C(=O)NCN3c2ccccc2)CC1 (centres unmarked) |  | 0.007 mg/kg |  |  | ED50 (TRY) [1]: 2.5 mg/kg
CC(=O)C1(c2ccc(F)cc2)CCC(N2CCC3(CC2)C(=O)NCN3c2ccc(F)cc2)CC1 (centres unmarked) | 2.5 mg/kg |  |  |  | 
COC(=O)C(C)CN1CN(c2ccc(F)cc2)C2(CCN(C3CCC(C#N)(c4ccc(F)cc4)CC3)CC2)C1=O (single isomer, unassigned) |  |  | < 10 mg/kg | 0.001 mg/kg | ED50 (APO)-rat ([2]; Table 2): < 10 mg/kg
CN1CN(c2ccc(F)cc2)C2(CCN(C3CCC(C#N)(c4ccc(F)cc4)CC3)CC2)C1=O (centres unmarked) |  |  | 0.08 mg/kg | 0.001 mg/kg | ED50 (APO)-rat ([2]; Table 2): 0.04 mg/kg
N#CCCN1CN(c2ccc(F)cc2)C2(CCN(C3CCC(C#N)(c4ccc(F)cc4)CC3)CC2)C1=O (centres unmarked) |  |  |  | 0.0005 mg/kg | ED50 (APO)-rat ([2]; Table 2): 0.16 mg/kg
COc1ccc(C2(C#N)CCC(N3CCC4(CC3)C(=O)NCN4c3ccccc3)CC2)cc1 (centres unmarked) | 10 mg/kg | 0.002 mg/kg |  |  | 
CCOC(=O)C1(c2ccccc2)CCC(N2CCC3(CC2)C(=O)NCN3c2ccc(F)cc2)CC1 (centres unmarked) | 1.25 mg/kg | 0.009 mg/kg |  |  | ED50 (TRY) [1]: 5 mg/kg
